From patent publication EP4847495A1, “BENZOHETEROCYCLIC COMPOUND AND USE THEREOF” (dated 2026)

Chains of the proteins cited; added tags and fusions are not shown. Residues count along the entry.
UniProt P05067, 672-713 limits assumed: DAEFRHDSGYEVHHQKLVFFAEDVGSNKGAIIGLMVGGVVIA

Key:
Aβ42 fibril = assay: SPR in vitro Aβ binding affinity (Biacore 8K); conditions: read-out: KD Aβ42 fibril, CM5 chip, 25°C, 1: 1 binding model
Aβ42 oligomer = assay: SPR in vitro Aβ binding affinity (Biacore 8K); conditions: read-out: KD Aβ42 oligomer, CM5 chip, 25°C, 1: 1 binding model
Aβ [1] = assay: Autoradiography on brain sections of transgenic AD mice; conditions: blocker 10 µM in incubation solution (Block / Self-Block group)
Aβ [2] = assay: PET imaging comparison of [18F] compound 1 and [18F]Flutemetamol; conditions: about 10 MBq i.v., static PET 45 min after injection, 15 min
APP/PS1 mice = assay: Morris water maze test; conditions: daily oral dose 2 mg/kg
Aβ plaques = assay: Aβ immunofluorescence staining assay of brain sections after treatment; conditions: 7 months, daily oral dose 2 mg/kg
activated microglia = assay: Immunostaining assay of microglia (Iba1) after treatment; conditions: daily oral dose 2 mg/kg; result in words
Aβ42 monomer = Aβ42 monomer (Homo sapiens, UniProt P05067); assay: SPR in vitro Aβ binding affinity (Biacore 8K); conditions: read-out: KD Aβ42 monomer, CM5 chip, 25°C, 1: 1 binding model

In the case of `CNc1ccc(-c2nc3ccc(O)cc3s2)cc1F`, the pKd (Aβ42 fibril) was 5.65, the pKd (Aβ42 oligomer) was 6.14 and the “blocking of compound 2 binding signals (autoradiography)” value (Aβ [1]) was “could be blocked”.

With `CNc1ccc(-c2nc3ccc(O)cc3s2)cc1[18F]` the “SUVR (reference tissue cerebellum) Cortex” value (Aβ [2]; APP/PS1 mice) was 1.12, the “SUVR (reference tissue cerebellum) Hippocampus” value (Aβ [2]; APP/PS1 mice) was 0.97 and the “SUVR (reference tissue cerebellum) Cortex” value (Aβ [2]; Wild mice) was 1.03. The “SUVR (reference tissue cerebellum) Hippocampus” value (Aβ [2]; Wild mice) was 0.85.

With `COc1cc2c(cc1OC)C(=O)C(CC1CCN(Cc3ccccc3)CC1)C2` (stereo not drawn) the “Escape latency, Mean value” (APP/PS1 mice; 6-month-old APP/PS1 mice, 7 months, AD control 41.4) was 46.6 S, the long-term memory ability (APP/PS1 mice; compared with solvent control group, result in words) was “decreased” and the “Number of Aβ plaques per unit area (mm^2) in the brain, Mean value” (Aβ plaques; 6-month-old APP/PS1 mice, AD control 200.4) was 200.6. The “number of Aβ plaques” value (Aβ plaques; result in words) was “no significant changes” and the “area proportion of the activated microglia in the brain” value (activated microglia) was “significant reduction”.

`CNc1ccc(-c2cc3cc(O)ccc3o2)c(F)n1` showed a pKd (Aβ42 monomer) of 5.48, a pKd (Aβ42 fibril) of 5.48 and a pKd (Aβ42 oligomer) of 5.24.

pKd: −log10 of the molar value.
